Binding of CDR-mutated scFvs to a peptide of the spike HR2 region

Data: MIT Lincoln Laboratory AlphaSeq set, Engelhart et al. 2022, doi:10.1038/s41597-022-01779-4, as distributed in FLAb.

Target: peptide PDVDLGDISGINAS, taken from heptad repeat 2 (HR2) of SARS-CoV-2 spike.

Ab-95 is the parent antibody, in scFv form: VH, then a 15-residue (Gly4Ser)3 linker, then VL. The heavy chain is unchanged in all variants.
VH: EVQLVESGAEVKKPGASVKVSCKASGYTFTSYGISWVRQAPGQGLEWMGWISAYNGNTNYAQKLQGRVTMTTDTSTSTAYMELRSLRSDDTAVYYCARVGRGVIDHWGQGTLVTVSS
VL: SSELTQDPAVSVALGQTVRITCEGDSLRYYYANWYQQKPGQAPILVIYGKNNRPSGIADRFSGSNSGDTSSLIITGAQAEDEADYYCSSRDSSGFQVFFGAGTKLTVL

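The parent was found by panning a naive human phage display library on the peptide. AAYL52 was designed without a model: most single CDR substitutions and a random sample of double and triple ones. The assay is AlphaSeq: two haploid yeast populations carry antibody and antigen on their surface. Pairs that bind mate more often; barcode pairs of the diploids are counted by sequencing. Each replicate has its own calibration line, from reference interactions of the BCL2 family. The assay was run in three technical replicates.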

Substitutions are numbered in sequence along the VL above, starting at 1 (not Kabat).
All variants listed here change G94 of the VL, counted from its first residue.
Affinities are written as log10 Kd with Kd in nM; a lower number is a better binder.
A pair that was not seen in that replicate is written "ND"; this usually means weak binding, but a binder can also be missed.
Empty control strains, which show no peptide, gave a signal in 28% of pairings with library AAYL52; the median was 3.91 and 95% of these signals were weaker than 2.90. No background was subtracted.
Parent in this assay: reference entry 2.31, copy in this library 2.25.

Variant Y31Q+R53Y+G94S showed ND, ND, ND.
Variant P54S+G94P showed 2.80, 3.17, 2.29.
Variant N51C+P54V+G94Y showed 5.41, 3.23, ND.
Variant G49D+G94H+F95A showed ND, ND, ND.
Variant E23A+N51V+G94F showed 3.42, ND, 3.55.
Variant R53M+R90C+G94A showed ND, 4.14, 3.92.
Variant G94P+F95C showed 3.78, 3.44, 3.58.
Variant N52A+S88V+G94E showed 3.91, 4.17, 3.81.
Variant N51K+S89L+G94D showed 4.55, 2.68, 3.76.
Variant K50T+N52E+G94C showed ND, ND, 3.35.
Variant N33I+G49T+G94E showed 3.21, 3.39, ND.
Variant Y30V+G94H+Q96I showed ND, ND, ND.
Variant K50N+G94V showed 2.43, 2.64, 1.96.
Variant S93Q+G94A+F95P showed ND, ND, ND.
Variant N52V+G94N+Q96S showed 2.87, 3.01, 3.10.
Variant E23F+D91H+G94Q showed 5.72, 3.56, 4.33.
Variant S92C+G94W showed 2.35, 2.49, 2.42.
Variant E23R+G94Q+Q96V showed ND, ND, ND.
Variant Y30A+G94R+V97Y showed 1.56, 1.38, 1.04.
Variant Y29N+S88V+G94L showed 2.03, 1.85, 1.16.
Variant K50F+S93P+G94N showed ND, ND, ND.
Variant K50P+G94K showed 1.80, 1.69, 1.26.
Variant Y30M+R53P+G94H showed 3.77, 4.30, ND.
Variant D91I+S93K+G94P showed ND, 3.48, 4.19.
Variant S26E+S55R+G94C showed 4.46, ND, ND.
Variant P54Y+G94R+F95Y showed 2.92, ND, ND.
Variant S55V+G94K showed 3.82, ND, ND.
Variant D91A+G94M+F98L showed 2.76, 2.90, 2.14.
Variant S55F+S88K+G94S showed ND, ND, ND.
Variant S89H+G94H+Q96K showed 3.40, 3.17, 2.86.
Variant N33C+S92W+G94V showed ND, 3.58, ND.
Variant R53Y+R90M+G94F showed ND, 4.90, 3.44.
Variant N33F+G94T+Q96S showed 4.57, 4.70, 3.60.
Variant N51F+S92H+G94Y showed ND, 4.14, 3.30.
Variant Y31D+S92E+G94A showed 1.27, 1.29, 0.72.
Variant Y31N+R53C+G94Q showed ND, ND, ND.
Variant R28L+N51S+G94D showed 5.29, 2.82, ND.
Variant E23M+G94L showed 2.07, 2.07, 2.35.
Variant R53Y+G94F+Q96G showed 4.14, 3.13, ND.
Variant E23A+Y31C+G94P showed 3.54, 2.84, ND.
Variant P54F+G94C showed 3.07, 3.56, 2.89.
Variant N52L+G94W+F95S showed 2.29, 2.19, 2.75.
Variant Y30P+N51Q+G94L showed 2.12, 2.63, 2.60.
Variant S26I+G94F+F95H showed ND, ND, ND.
Variant P54A+G94R+Q96D showed ND, ND, ND.
Variant N33C+G94R showed ND, ND, ND.
Variant Y29A+G94P showed 3.91, 3.04, 3.35.

For reference, 4 entries of the list once more:

| changes | log10 Kd (nM) by replicate |
|---|---|
| R53Y+G94F+Q96G | 4.14, 3.13, ND |
| S89H+G94H+Q96K | 3.40, 3.17, 2.86 |
| N33C+G94R | ND, ND, ND |
| Y30A+G94R+V97Y | 1.56, 1.38, 1.04 |